One molecule from patent US7659249B2, “Membrane-permeable NFAT inhibitory peptide” (Japan Science and Technology Agency, priority 2002, dated 2010) can be followed below.

For series [1] the following is noted: AoB rat, 1.5 mg/kg hypodermically every other day for 4 weeks.
For series [2] the following is noted: 10 mg/kg peptide comprising 11R-VIVIT and FITC, intraperitoneal, 6 hours after injection.

In series [1], `CC[C@H](C)[C@H](NC(=O)[C@@H](NC(=O)[C@@H]1CCCN1C(=O)[C@H](Cc1c[nH]cn1)NC(=O)[C@@H]1CCCN1C(=O)CNC(=O)[C@H](C)NC(=O)[C@H](CCSC)NC(=O)CNC(=O)CNC(=O)CNC(=O)[C@H](CCCNC(=N)N)NC(=O)[C@H](CCCNC(=N)N)NC(=O)[C@H](CCCNC(=N)N)NC(=O)[C@H](CCCNC(=N)N)NC(=O)[C@H](CCCNC(=N)N)NC(=O)[C@H](CCCNC(=N)N)NC(=O)[C@H](CCCNC(=N)N)NC(=O)[C@H](CCCNC(=N)N)NC(=O)[C@H](CCCNC(=N)N)NC(=O)[C@H](CCCNC(=N)N)NC(=O)[C@@H](N)CCCNC(=N)N)C(C)C)C(=O)N[C@H](C(=O)N[C@H](C(=O)N[C@H](C(=O)NCC(=O)N1CCC[C@H]1C(=O)N[C@@H](Cc1c[nH]cn1)C(=O)N[C@@H](CCC(=O)O)C(=O)N[C@@H](CCC(=O)O)C(=O)O)[C@@H](C)O)[C@@H](C)CC)C(C)C` [11R-VIVIT] displayed a BUN of 16.6 ± 2.71 mg/dL, a Cr of 0.28 ± 0.02 mg/dL, a GOT of 99.2 ± 6.24 IU/l and a GPT of 55.8 ± 9.95 IU/l. In addition, in series [2], the “fluorescence of FITC in sections of the spleen, the lymph node, the liver, the kidney and the heart” value is listed as “fluorescence of FITC was observed”.
